# Measured values published in ChEMBL document CHEMBL4368915, “Synthesis and Biological Investigation of Phenothiazine-Based Benzhydroxamic Acids as Selective Histone Deacetylase 6 Inhibitors” (J Med Chem, 2019).
# Target: T1, Protein deacetylase HDAC6 (Homo sapiens, UniProt Q9UBN7)
# T1 sequence (Q9UBN7 whole entry): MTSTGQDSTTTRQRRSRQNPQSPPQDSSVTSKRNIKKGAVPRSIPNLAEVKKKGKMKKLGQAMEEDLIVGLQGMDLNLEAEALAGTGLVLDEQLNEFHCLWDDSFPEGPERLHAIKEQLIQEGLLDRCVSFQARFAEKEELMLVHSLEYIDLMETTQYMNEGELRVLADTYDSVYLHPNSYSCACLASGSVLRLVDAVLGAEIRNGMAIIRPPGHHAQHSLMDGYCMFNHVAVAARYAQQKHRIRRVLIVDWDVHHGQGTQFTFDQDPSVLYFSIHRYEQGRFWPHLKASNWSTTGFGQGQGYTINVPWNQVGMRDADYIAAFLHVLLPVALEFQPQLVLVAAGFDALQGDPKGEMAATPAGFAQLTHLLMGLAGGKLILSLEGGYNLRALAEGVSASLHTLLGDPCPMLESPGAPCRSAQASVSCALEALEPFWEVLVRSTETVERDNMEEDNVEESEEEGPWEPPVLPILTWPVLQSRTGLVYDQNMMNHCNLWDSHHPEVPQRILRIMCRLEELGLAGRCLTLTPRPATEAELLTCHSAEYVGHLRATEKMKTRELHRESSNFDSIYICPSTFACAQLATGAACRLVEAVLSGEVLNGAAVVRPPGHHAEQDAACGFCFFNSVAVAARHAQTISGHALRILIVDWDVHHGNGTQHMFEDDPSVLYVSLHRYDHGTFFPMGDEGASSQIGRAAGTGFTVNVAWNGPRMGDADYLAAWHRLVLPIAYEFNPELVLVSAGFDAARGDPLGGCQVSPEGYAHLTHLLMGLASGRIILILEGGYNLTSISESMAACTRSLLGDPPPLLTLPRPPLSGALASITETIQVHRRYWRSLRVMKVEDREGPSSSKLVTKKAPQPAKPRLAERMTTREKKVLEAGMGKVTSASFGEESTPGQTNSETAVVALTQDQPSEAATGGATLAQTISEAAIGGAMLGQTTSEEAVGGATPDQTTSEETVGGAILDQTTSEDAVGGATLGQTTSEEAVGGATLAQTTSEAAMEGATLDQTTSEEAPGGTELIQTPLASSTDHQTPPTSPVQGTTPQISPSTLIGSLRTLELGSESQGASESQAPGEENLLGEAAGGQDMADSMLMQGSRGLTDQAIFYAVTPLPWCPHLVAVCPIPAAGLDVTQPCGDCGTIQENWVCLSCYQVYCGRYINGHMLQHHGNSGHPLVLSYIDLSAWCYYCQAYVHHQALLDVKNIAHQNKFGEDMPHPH
smiles,measurement,value
O=C(NO)c1ccc(CN2c3ccccc3S(=O)(=O)c3ccccc32)cc1,IC50,0.013 µM
